Assay results published in ChEMBL document CHEMBL1150979, “DERIVATIVES OF 4-AMINO-PYRIDINE AS SELECTIVE THROMBIN INHIBITORS” (Bioorg Med Chem Lett, 1997).

Protein sequences, listed by entry. Tags and fused reporters are not part of them. Residues count along the entry.
UniProt P00747, 97-580 limits assumed: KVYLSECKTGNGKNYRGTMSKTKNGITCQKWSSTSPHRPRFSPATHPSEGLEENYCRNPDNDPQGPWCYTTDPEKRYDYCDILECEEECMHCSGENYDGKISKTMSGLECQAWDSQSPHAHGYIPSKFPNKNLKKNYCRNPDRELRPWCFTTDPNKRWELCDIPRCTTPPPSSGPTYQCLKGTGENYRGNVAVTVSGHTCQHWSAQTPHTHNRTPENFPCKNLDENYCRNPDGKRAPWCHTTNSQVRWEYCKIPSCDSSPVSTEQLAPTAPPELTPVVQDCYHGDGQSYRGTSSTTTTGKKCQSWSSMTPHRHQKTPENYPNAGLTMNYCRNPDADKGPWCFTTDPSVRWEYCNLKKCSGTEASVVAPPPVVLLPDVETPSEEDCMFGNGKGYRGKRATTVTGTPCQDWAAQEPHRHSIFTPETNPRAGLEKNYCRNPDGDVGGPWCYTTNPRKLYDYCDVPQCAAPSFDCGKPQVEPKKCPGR
UniProt P00747, 581-810 limits assumed: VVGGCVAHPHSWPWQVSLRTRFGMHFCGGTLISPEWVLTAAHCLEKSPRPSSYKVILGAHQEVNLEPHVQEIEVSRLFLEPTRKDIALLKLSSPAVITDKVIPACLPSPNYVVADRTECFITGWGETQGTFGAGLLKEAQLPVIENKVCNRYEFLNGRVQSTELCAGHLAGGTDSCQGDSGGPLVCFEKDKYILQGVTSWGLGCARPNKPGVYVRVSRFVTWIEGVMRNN

Target: Plasminogen (Homo sapiens, UniProt P00747)
Assay: Tested for the Inhibition of the catalytic activity of human plasmin at 25 degree C and pH 7.5.

- Ki: 350 µM
Structure (SMILES): N=C(N)c1ccccc1 [BENZAMIDINE]
